In patent US8501778B2, “Aralkyl piperidine derivatives and their uses as antalgic or ataractic agent” (priority 2008, dated 2013):

Assay: Animal model studies, summary (oral absorption, therapeutic index)
Conditions: summary statement

## COc1ccc(CN2CCC(O)(CC(=O)c3ccccc3)CC2)cc1.Cl [III-15, N-p-methoxybenzyl-4-benzoylmethyl-4-piperidinol hydrochloride]
  therapeutic index: high
